NRP1-CendR mod – NRP-1/CendR interaction modulation. FAM-RPARPAR peptide binding to NRP-1, fluorescence polarization. inhibition, % at 25 µM. O14786. hit rate 0.85% among 360,000;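 active = inhibition or corrected inhibition above about 18%, plus a signal ratio from 0.5 to 1.5, limit read from the data, passing the limit was not always enough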
ARFGAP1 inh – inhibits rat ARF GTPase activating protein 1. Arfgap1-stimulated ARF1 GTP hydrolysis, GDP FP detection. inhibition, % at 16.5 µM. hit rate 0.26% among 360,000;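 active = inhibition above a per-plate limit, mean inhibition of low control wells plus 3 SD, cut at about 25% in these data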;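 also: 0% = DMSO wells with enzyme and 100% = wells lacking Arfgap1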
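Replicates: Single well per compound | Assay system: Truncated rat Arfgap1 GAP domain | Control set: No-Arfgap1 wells (100%) versus DMSO full-reaction wells (0%) | Times: Enzyme reaction 120 min at 25 °C after 20 min preincubation | Reagent: Human ARF1(Δ1-17)-GTP substrate | Measured by: Tracer-displacement fluorescence polarization with EDTA stop, 620/688 nm | Measure: Percent inhibition of Arfgap1-stimulated GTP hydrolysis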
ASAP1 inh – ASAP1 ArfGAP inhibition; Q9ULH1; ASAP1-stimulated ARF1 GTP hydrolysis, GDP FP detection; inhibition, % at 16.5 µM; hit rate 0.19% among 360,000; AID 624377; in the data active = inhibition above about 25%;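 also: 0% = vehicle with enzyme and substrate and 100% = no enzyme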
MC4R antagonist – blocks human MC4R cAMP signaling; P32245; MC4R-expressing cells, MTII-stimulated cAMP, LANCE TR-FRET; inhibition, % at 6.5 µM; hit rate 0.48% among 360,000; AID 540295;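 active = inhibition above its plate's cutoff, the mean of tested wells on that plate plus 3 SD, cut at about 29% in these data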;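 also: 0% = Melanotan II alone and 100% = Melanotan II plus saturating MCL0020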
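system = U2OS cells with stable human MC4R expression | also added = Melanotan II challenge after compound preincubation | dosing = one concentration, 6.5 µM nominal | incubation = compound 30 min, challenge 1 h, detection 1 h | measured by = TR-FRET with Eu-cAMP and labeled anti-cAMP, 671 nm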
MC4R barr agon – activates human MC4R beta-arrestin recruitment | P32245 | U2OS MC4R beta-arrestin complementation, luminescence; percent of melanotan II response, DMSO zero | activation, % at 8.9 µM | hit rate 0.98% among 360,000 | AID 540308;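 active = activation above a per-plate cutoff, the mean activation of sample wells on that plate plus 3 SD, cut at about 8% in these data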
Yeast UUG start – modulators of start codon recognition fidelity in yeast; AID 602363; activity score, % at 18.7 µM; S. cerevisiae UUG-firefly luciferase reporter, luminescence/redox ratio; actives 0.13% (n = 350,000);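 active = replicate mean at a twofold rise or more, about +100% in these data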;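 note: firefly luciferase made from a UUG start codon reports start codon fidelity; reporter light over untreated wells divided by growth signal over untreated wells; some hits fall short of that in this replicate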
* hit, by the source's call; . = no result given; ! = repeats disagree. Hits are enriched below; roughly 2.3% of the tested compounds scored in any of these assays.

SMILES	NRP1-CendR mod	ARFGAP1 inh	ASAP1 inh	MC4R antagonist	MC4R barr agon	Yeast UUG start
CCCNC(=O)N1[C@H]2CC[C@@H]1C(C(=O)OC)=C(c1ccc(S(C)(=O)=O)cc1)C2	17	12	10	5	0	-15
COC(=O)C1=C(c2ccccc2)C[C@@H]2CC[C@H]1N2C	25*	9	-7	-5	0	-14
COC(=O)C1=C(c2cccc(C#N)c2)C[C@@H]2CC[C@H]1N2C(=O)NC(C)C	22*	5	4	-1	0	10
COC(=O)C1=C(c2ccc(-c3ccccc3)c(F)c2)C[C@@H]2CC[C@H]1N2C(=O)N1CCC(C)CC1	25*	4	4	3	-2	-5
COC(=O)C1=C(c2ccc(S(C)(=O)=O)cc2)C[C@@H]2CC[C@H]1N2C	35*	-9	-3	7	-1	-16
N#Cc1cccc(-c2ccc([C@H]3[C@H]4CN(C(=O)Cc5cccnc5)CCCCN4[C@H]3CO)cc2)c1	.	.	.	.	.	-15
CCOC(=O)[C@@H]1[C@@H]2NC(=S)N(C)[C@@]1(COCc1ccc(OC)cc1)Oc1ccccc12	.	.	.	.	.	12
CN(C)CC#Cc1ccc([C@@H]2[C@H]3CN(C(=O)Cc4ccccn4)CCCCN3[C@H]2CO)cc1	.	.	.	.	.	-7
CCCNC(=O)N1[C@H]2CC[C@@H]1C(C(=O)OC)=C(c1ccc(OC(F)(F)F)cc1)C2	29*	-10	0	7	-2	-15
COC(=O)C1=C(c2ccc(OC(F)(F)F)cc2)C[C@@H]2CC[C@H]1N2C(=O)NCCOc1ccccc1	2	-7	-1	-3	0	1
CCN(CC)c1ccc(CN2CC=C(c3ccc(F)cc3)CC2)cc1	20*	6	-9	2	1	-4
C=C[C@@H]1C2=CCOC(=O)C2=CO[C@H]1O[C@@H]1O[C@H](CO)[C@@H](O)[C@H](O)[C@H]1O	24*	-7	5	1	-1	-3

Some of the entries so far, with two lines to a compound:
Each structure is followed by: NRP1-CendR mod	ARFGAP1 inh	ASAP1 inh	MC4R antagonist	MC4R barr agon	Yeast UUG start
CCOC(=O)[C@@H]1[C@@H]2NC(=S)N(C)[C@@]1(COCc1ccc(OC)cc1)Oc1ccccc12
    .	.	.	.	.	12
CN(C)CC#Cc1ccc([C@@H]2[C@H]3CN(C(=O)Cc4ccccn4)CCCCN3[C@H]2CO)cc1
    .	.	.	.	.	-7

Other structures follow.
SMILES	NRP1-CendR mod	ARFGAP1 inh	ASAP1 inh	MC4R antagonist	MC4R barr agon	Yeast UUG start
C/C=C/c1ccc([C@H]2[C@@H](CO)N3CCCCN(C(=O)Cc4ccncc4)C[C@@H]23)cc1	.	.	.	.	.	-5
CN1CC[C@@]2(C)c3cc(O)ccc3N(C)[C@@H]12	28*!	7	14	-9	-1	-15
CN1CC[C@@]2(C)c3cc(O)ccc3N(C)C2O1 (stereo partly specified)	12	.	.	-6	0	1
c1ccc(Nc2ccc(Nc3ccccc3)cc2)cc1	29*	17	-3	-3	2	-11
O=[N+]([O-])c1ccc(Nc2ccccc2)cc1	4	10	-3	-8	-3	.
CC1Oc2cc3c(-c4c(O)cc(O)c5c(O)c6c(cc45)OC(C)C(C)C6=O)c(O)cc(O)c3c(O)c2C(=O)C1C (stereo unspecified)	7	.	.	20	9.7*	-3
O=C(Cc1ccccn1)N1CCCCN2[C@H](CO)[C@H](c3ccc(C#Cc4ccccc4)cc3)[C@H]2C1	.	.	.	.	.	0
Cn1cc(C(=O)OCC(=O)Nc2ccccc2)c2ccccc21	21*	15	6	-3	-2	-12
Cn1cc(C(=O)OCC(=O)Nc2ccccc2Cl)c2ccccc21	9	1	-14	1	-3	-8
NC(N)=N/N=C/c1ccc(N(c2ccccc2)c2ccccc2)cc1	25*	2	4	10	4	-21
O=C(Cc1ccccc1)N1CCCCN2[C@@H](CO)[C@@H](c3ccc(-c4ccccc4)cc3)[C@@H]2C1	.	.	.	.	.	11
Clc1ccc(-c2nc3ccc(Cl)cn3c2CN2CCOCC2)cc1	50*	-7	6	3	-1	4
COC(=O)C1=C(c2cccc(OC)c2OC)C[C@@H]2CC[C@H]1N2C(=O)NCc1ccc(F)cc1	27*	-10	3	2	1	0
COC(=O)C1=C(c2cccc(OC)c2OC)C[C@@H]2CC[C@H]1N2C(=O)NCc1ccccc1	16	-4	5	7	-1	-2
COC(=O)C1=C(c2ccccc2OCc2ccccc2)C[C@@H]2CC[C@H]1N2C(=O)NCc1ccc(F)cc1	22*	-11	9	2	-2	-23
CCOc1ccc(NC(=O)c2c(O)[nH]c(=O)[nH]c2=O)cc1	6	3	-1	7	-1	-21
CC(=O)Nc1ccc(OCCF)cc1	26*	3	-5	-6	-2	.
CCn1cc(C(=O)N2CCC3(CC2)OCCO3)c(=O)c2cc(S(=O)(=O)N3CCCC3)ccc21	3	-15	-8	17	1	-9
O=C(c1c[nH]c2ccc(S(=O)(=O)N3CCOCC3)cc2c1=O)N1CCC2(CC1)OCCO2	28*	0	14	-2	-2	-4
c1ccc2c(NC3=NCCS3)cccc2c1	26*	-4	-21	12	-2	-25
Clc1cccc(Cl)c1NC1=NCCS1	5	-9	2	4	-1	-19
O=C(Cc1ccccc1)N1C[C@@H]2[C@H](c3ccccc31)[C@@H](CO)N2Cc1ccccc1	.	.	.	.	.	-8
Cc1ccc(-[n+]2c(Cc3nn(-c4ccccc4)c(C)[n+]3-c3ccc(C)cc3)nn(-c3ccccc3)c2C)cc1	27*	8	6	-1	-2	-17
O=C(Nc1ccc(Cl)cc1C(=O)c1ccccc1)c1ccccc1	25*	-5	-8	-4	0	-18

Entries of single compounds, quoted from the list:
Results for `Clc1cccc(Cl)c1NC1=NCCS1` → NRP1-CendR mod: 5; ARFGAP1 inh: -9; ASAP1 inh: 2; MC4R antagonist: 4; MC4R barr agon: -1; Yeast UUG start: -19
Results for `CC(=O)Nc1ccc(OCCF)cc1` → NRP1-CendR mod: 26*; ARFGAP1 inh: 3; ASAP1 inh: -5; MC4R antagonist: -6; MC4R barr agon: -2; Yeast UUG start: .

Continued:
SMILES	NRP1-CendR mod	ARFGAP1 inh	ASAP1 inh	MC4R antagonist	MC4R barr agon	Yeast UUG start
O=C(CN1CCCC1)Nc1ccc(Cl)cc1C(=O)c1ccccc1	9	6	5	19	-1	.
COC(=O)[C@H]1[C@H](CO)[C@H]2Cn3c(ccc(-c4ccccc4)c3=O)[C@@H]1N2CCc1ccccc1	.	.	.	.	.	-12
O=C(Cc1ccncc1)N1CCCCN2[C@H](C1)[C@@H](c1ccc(C#CC3(O)CCCC3)cc1)[C@@H]2CO	.	.	.	.	.	8
CC12CC[C@H]3[C@@H](CCC4(O)C[C@H](O)CCC34/C=N/NC(=O)c3ccccc3[N+](=O)[O-])C1(O)CCC2C1=CC(=O)OC1 (stereo partly specified)	2	1	-9	-5	4	12
C[C@]12CC[C@H]3C(CCC4(O)CC(O)CC[C@]34C=O)C1=CC[C@H]2c1ccc(=O)oc1 (stereo partly specified)	-3	-8	10	4	21*	2
CC(=O)O[C@H]1[C@H]2O[C@]23[C@@H]2CC[C@]4(O)C[C@@H](O)CC[C@]4(C)C2CC[C@]3(C)[C@H]1c1ccc(=O)oc1 (stereo partly specified)	-4	.	.	4	24*	10
Cc1ccccc1-c1ccc([C@H]2[C@H]3CN(C(=O)Cc4ccccn4)CCCCN3[C@H]2CO)cc1	.	.	.	.	.	3
C[C@]12CC[C@H](O)C[C@H]1CC[C@@H]1[C@@H]2CC[C@]2(C)[C@@H](C3=CC(=O)OC3)CC[C@]12O	-4	1	-10	21	34*	-3

Screening results deposited in PubChem by several laboratories.
